{"source": "patent US10508087B2", "about": "“Crystalline forms of trisodium supramolecular complex comprising valsartan and AHU-377 and methods thereof” (CRYSTAL PHARMATECH CO., LTD., priority 2014, dated 2019)", "key": {"[1]": {"conditions": "drug substance powder, individual determination"}}, "note": "“And” between values parts separate entries of the source, which are not always exact repeats. Identical values can stand only once.", "data": [{"substance": "trisodium [3-((1S,3R)-1-biphenyl-4-ylmethyl-3-ethoxycarbonyl-1-butylcarbamoyl) propionate-(S)-3′-methyl-2′-(pentanoyl{2″-(tetrazol-5-ylate)biphenyl-4′-ylmethyl}amino) butyrate] hemipentahydrate", "values": [{"measurement": "Compressibility Index", "setting": "(Tapped Density-Bulk Density)/Tapped Density*100%, individual determination", "result": "28% (2×) and 29% (2×) and 31%"}, {"measurement": "Compressibility Index Average", "setting": "average of the determinations", "result": 29, "unit": "%"}, {"measurement": "Bulk Density", "setting": "[1]", "result": "0.239 g/mL and 0.243 g/mL and 0.245 g/mL and 0.244 g/mL and 0.240 g/mL"}, {"measurement": "Tapped Density", "setting": "[1]", "result": "0.331 g/mL and 0.343 g/mL and 0.346 g/mL and 0.338 g/mL and 0.347 g/mL"}, {"measurement": "Flowability", "setting": "rating by compressibility index, USP<1174>", "result": "Poor"}]}]}
